Data on 2 compounds can be found in PubChem BioAssay AID1508611 (The Scripps Research Institute Molecular Screening Center, 2020).

By UniProt entry, the sequences of proteins in these tests, tags left out. Where a name states a change or a piece, a line headed by the entry shows the natural chain unless it says otherwise.
UniProt Q8TDV5: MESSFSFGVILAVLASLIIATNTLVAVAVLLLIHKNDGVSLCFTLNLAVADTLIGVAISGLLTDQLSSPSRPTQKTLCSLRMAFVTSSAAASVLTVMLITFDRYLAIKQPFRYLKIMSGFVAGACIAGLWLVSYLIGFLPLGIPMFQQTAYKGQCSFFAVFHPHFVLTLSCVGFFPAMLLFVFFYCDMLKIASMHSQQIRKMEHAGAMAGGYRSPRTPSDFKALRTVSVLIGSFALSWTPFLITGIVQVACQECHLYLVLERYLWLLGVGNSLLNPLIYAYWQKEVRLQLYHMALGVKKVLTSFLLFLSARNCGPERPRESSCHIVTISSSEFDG

This is a selection; strong and weak results do not stand in their true shares. The source made the active and inactive calls.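 The calls were made as follows: active = mean percent activation in the counterscreen above 29.09%; inactive = the rest.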

The test addresses Glucose-dependent insulinotropic receptor (Homo sapiens) (UniProt Q8TDV5). In words: GPR119 activators in beta-arrestin cells, counter-screen for GPR151 activator project, cell-based, PathHunter beta-arrestin, luminescence, triplicate (AID 1508611).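 Also: counterscreen on off-target GPR119 to flag nonselective hits from the GPR151 activator screen.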 The conditions noted are these: 90 min, at 11.2 µM, hits give high values, 0 = compound-well median, 100 = enzyme-acceptor control.
For `O=C(Nc1cccc(F)c1)N(Cc1cccnc1)C1CCN(CCc2cccs2)CC1`, the activation is inactive: -6.5%.

Take `Cc1cc(Br)c(Nc2c([N+](=O)[O-])cc([N+](=O)[O-])c3nonc23)cc1[N+](=O)[O-]`: the activation was inactive: -15.2%.
